Like-named read-outs stand apart in the source and are kept apart here.

The results in this text go back to patent US12564641B2, “Eribulin antibody-drug conjugates and methods of use” (EISAI R&D MANAGEMENT CO., LTD., priority 2019, dated 2026).

For one assay, the system named is A431 cells. The experiment in a line: In vitro cytotoxicity analysis (Crystal Violet), A431. The following applies: Homo sapiens. As for the experimental part: (§1) Plates were read at 570 nm. Data was analyzed using GraphPad Prism 6.
(§2) All ADCs were purified and characterized using SEC-HPLC for aggregation analysis, HIC-HPLC for DAR analysis, and cell-based assay with A431-A3 (MSLN^hi), A431 (MSLN^lo), and OVCAR3 (MSLN^hi) cell lines.

Another assay deals with OVCAR3 cells. The experiment in a line: In vitro cytotoxicity analysis (Crystal Violet), OVCAR3. The following applies: Homo sapiens. As for the experimental part:
as §1, §2

What is called EC50 is the concentration at which the effect is half-maximal. For the compound `C=C1C[C@@H]2CC[C@@]34C[C@H]5O[C@H]6[C@@H](O3)[C@H]3O[C@H](CC[C@@H]3O[C@H]6[C@H]5O4)CC(=O)C[C@@H]3[C@@H](OC)[C@@H](C[C@H](O)CN)O[C@H]3C[C@H]3O[C@@H](CC[C@@H]1O2)C[C@@H](C)C3=C` [Eribulin, eribulin], the EC50 in the assay with A431 cells (A-431, 120 h, read-out: Cell-Based Cytotoxicity Assay, EC50 (nM) A431) is 0.47 nM; with A431 cells (A-431, read-out: Cell-Based Cytotoxicity Assay EC50 (nM) A431), 0.47 nM; in the assay with OVCAR3 cells (OVCAR-3, 120 h, read-out: Cell-Based Cytotoxicity Assay, EC50 (nM) OVCAR3), 0.11 nM; with OVCAR3 cells (OVCAR-3, read-out: Cell-Based Cytotoxicity Assay EC50 (nM) OVCAR3), 0.11 nM.
